Experimental data from US8748624B2, “Picolinamido-propanoic acid derivatives useful as glucagon receptor antagonists” (Janssen Pharmaceutica NV, priority 2011, dated 2014).

Sequences of proteins named here, by UniProt entry; tags and fusion partners are left off. Residues count along the entry.
UniProt P47871, 26-477: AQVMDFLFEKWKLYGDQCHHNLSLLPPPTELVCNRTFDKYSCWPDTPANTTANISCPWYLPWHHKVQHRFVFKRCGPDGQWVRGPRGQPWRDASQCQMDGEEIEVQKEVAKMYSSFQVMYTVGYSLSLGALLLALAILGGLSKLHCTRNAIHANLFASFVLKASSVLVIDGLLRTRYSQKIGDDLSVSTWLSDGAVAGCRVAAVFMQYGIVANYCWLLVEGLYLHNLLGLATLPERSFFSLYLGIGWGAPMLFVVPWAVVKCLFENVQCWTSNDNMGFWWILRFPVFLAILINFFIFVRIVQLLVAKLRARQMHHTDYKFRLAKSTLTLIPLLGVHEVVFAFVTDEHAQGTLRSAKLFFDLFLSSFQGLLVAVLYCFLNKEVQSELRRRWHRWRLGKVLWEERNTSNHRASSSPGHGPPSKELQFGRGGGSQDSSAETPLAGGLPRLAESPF

Columns and labels:
[1] = target: human glucagon receptor (GCGR) (Homo sapiens (Human), UniProt P47871); experiment: Inhibition of 125I-glucagon binding to membranes from HEK293 cells expressing the human glucagon receptor; settings: membranes of hGluc-1 HEK cells, 125I-glucagon 0.3 nM, 2 hours room temperature; IC50 converted to Ki; average if tested more than once
Procedure: Inhibition ^125I-Glucagon Binding to Membranes from HEK293 Cells Expressing the Human Glucagon Receptor (GCGR)
Full-length human GCGR (Accession Number: NM000160) subcloned into pcDNA3.1 was stably transfected into HEK293 cells (hGluc-1 HEK) and maintained under G418 selection (500 μg/mL). Cell cultures were maintained in DMEM/F12 media supplemented with 10% FBS and 1% GlutaMax. Membranes were prepared from these cells as follows: cells were harvested from T225 flasks and re-suspended in hypotonic lysis buffer, 50 mM HEPES pH 7.4 supplemented with Complete Protease inhibitors (Boehringer Mannheim, Indianapolis, Ind.). Cells were dounced 20 times on ice and spun at 700×g to remove nuclei and unlysed cells. The resulting pellet was re-suspended in hypotonic lysis buffer and the above step was repeated. Supernatants from the low speed centrifugation were combined and subsequently spun at 100K×g for 1 hr at 4° C. and the resulting pellet was re-suspended in buffer containing 50 mM HEPES pH 7.4 and 10% sucrose and the protein concentration was adjusted at 1 mg/mL as determined in the BCA assay. Membranes were aliquoted and stored at −80° C. The binding assay was performed by a filtration method in a 384 well format. Membranes at a final protein concentration of 6 μg/well were incubated with ^125I-glucagon at 0.3 nM and in the presence of compound for 2 hours at room temperature in a total reaction volume of 40 μL per well. Assay buffer consisted of 50 mM HEPES, pH 7.4, 5 mM MgCl2, 1 mM CaCl2 and 0.2% BSA. 30 μL of the reaction was then transferred to PEI treated filter plates and followed by filter aspiration. Plates were then washed 5× and allowed to dry at room temperature overnight. The next day the bottom of the plate was covered with seal tape and scintillant was added. Total counts retained by the filters were quantified with a Top Count instrument. IC50's were generated by using a non-linear regression macro driven in Excel and converted to K's.

[2] = target: human GCGR (Homo sapiens (Human), UniProt P47871); experiment: Cellular functional assay, cAMP readout (glucagon-stimulated cAMP in HEK293 cells expressing human GCGR); format: cell-based; settings: hGluc-1 HEK cells, LANCE TR-FRET, IC50 converted to Ki, average if tested more than once
Procedure: IC50 Values in Cellular Functional Assays: cAMP Readout
Full-length human GCGR (Accession Number: NM000160) subcloned into pcDNA3.1 was stably transfected into HEK293 cells (hGluc-1 HEK) and maintained under G418 selection (500 μg/mL). Cell cultures were maintained in DMEM/F12 media supplemented with 10% FBS and 1% GlutaMax. Glucagon stimulated cAMP was quantified using LANCE technology as per manufacturer instructions. On the day of the experiment, spent media was removed and cells were washed with Hank's Buffered Saline solution (HBSS) and cells were harvested with non-enzymatic cell dissociation solution, then washed once with HBSS. Cells were re-suspended in stimulation buffer at a concentration of 0.83×10^6 cells/ml and cAMP detection antibody was added. 6 μl/well of this solution was then dispensed in a 384 well plate (cell density 5000 cells/well). Test compound was serially diluted in DMSO and 50 nl were dispensed on top of the cell solution and allowed to incubate for 30 minutes. 6 μl of a 2× glucagon solution (final concentration in assay […]) was then added and the reaction was terminated after 5 minutes with the addition of detection mix. The mixture was incubated, protected from light for 1.5 h. cAMP levels were quantified by TR-FRET in an EnVision instrument against a known standard. IC50's were generated by using a non-linear regression macro driven in Excel and converted to K, values.

Ki [1] | Ki [2] | Compound
30.1 nM | 20 nM | Cc1cc(Cl)ccc1-c1ccc(NC(=O)c2ccc(C(F)(F)F)cc2-c2ccc(C(=O)NCCC(=O)O)nc2)cc1 [Compound 154, 3-(5-(2-((4′-chloro-2′-methyl-[1,1′-biphenyl]-4-yl)carbamoyl)-5-(trifluoromethyl)phenyl)picolinamido)propanoic acid]
95.7 nM | 1850 nM | O=C(O)CCNC(=O)c1ccc(-c2c(CNc3ccc(-c4ccc(Cl)cc4)cc3)cccc2C(F)(F)F)cn1 [Compound 64, 3-(5-(2-(((4′-chloro-[1,1′-biphenyl]-4-yl)amino)methyl)-6-(trifluoromethyl)phenyl)picolinamido)propanoic acid]
20.3 nM | 13.5 nM | O=C(O)CCNC(=O)c1ccc(-c2cc(C(F)(F)F)cc(Cl)c2CNc2ccc(-c3ccc(Cl)cc3Cl)cc2)cn1 [Compound 72, 3-(5-(3-chloro-2-(((2′,4′-dichloro-[1,1′-biphenyl]-4-yl)amino)methyl)-5-(trifluoromethyl)phenyl)picolinamido)propanoic acid]
183 nM | 1700 nM | N#Cc1cc(NCc2cc(F)c(F)cc2-c2ccc(C(=O)NCCC(=O)O)nc2)ccc1-c1cc(F)cc(C(F)(F)F)c1 [Compound 116, 3-(5-(2-(((2-cyano-3′-fluoro-5′-(trifluoromethyl)-[1,1′-biphenyl]-4-yl)amino)methyl)-4,5-difluorophenyl)picolinamido)propanoic acid]
65.1 nM | 94.8 nM | O=C(O)CCNC(=O)c1ccc(-c2cc(Cl)ccc2CNc2ccc(-c3cccc(Cl)c3)cc2)cn1 [Compound 14, 3-(5-(5-chloro-2-(((3′-chloro-[1,1′-biphenyl]-4-yl)amino)methyl)phenyl)picolinamido)propanoic acid]
19.4 nM | 56.6 nM | O=C(O)CCNC(=O)c1ccc(-c2cc(C(F)(F)F)ccc2CNc2ccc(-c3ccc(Cl)cc3Cl)cc2)cn1 [Compound 21, 3-(5-(2-(((2′,4′-dichloro-[1,1′-biphenyl]-4-yl)amino)methyl)-5-(trifluoromethyl)phenyl)picolinamido)propanoic acid]
19.9 nM | 110 nM | O=C(O)CCNC(=O)c1ccc(-c2cc(Cl)ccc2CNc2ccc(-c3ccc(F)cc3)c(Cl)c2)cn1 [Compound 52, 3-(5-(5-chloro-2-(((2-chloro-4′-fluoro-[1,1′-biphenyl]-4-yl)amino)methyl)phenyl)picolinamido)propanoic acid]
